From US8148092B2, “System and method for performing G protein coupled receptor (GPCR) cell assays using waveguide-grating sensors” (Corning Incorporated, priority 2005, dated 2012)

Tested on: CHO cells with stably overexpressed rat muscarinic receptor subtype 1 (M1 CHO)
Test: optical LID mass redistribution response of CHO cells with stably overexpressed rat muscarinic receptor subtype 1 after compound addition
Type: cell-based, Chinese Hamster
Conditions: compound 10 μM, compared with CHO cells, FIGS. 14, 15, 18
Experimental: FIG. 14 a time-dependent LID response of engineered Chinese Hamster Ovary (CHO) cells with over-expressed rat muscarnic receptor subtype 1 (thus this cell line is termed as M1 CHO) before and after compound addition. The compound concentration used is 10 μM for all compounds.

Clc1cccc(Cl)c1N=C1NCCN1 [clonidine]
ligand-induced mass redistribution signal (total change in response): induced mass redistribution signals
